Columns and labels:
CB1 receptors [1] = molecular target: CB1 receptors (Rattus norvegicus, UniProt P20272); test: CB1 receptor internalization in HEK293 cells stably expressing CB1; assay type: cell-based
CB1 receptors [2] = molecular target: T1, CB1 receptors (Mus musculus, UniProt P47746); conditions: 100 nM treatment; ref Straiker and Mackie, 2005; cited from earlier work
CB1 receptors [3] = molecular target: T1, CB1 receptors; test: Inhibition of EPSCs; assay type: cell-based; conditions: 1 μM rimonabant against 1 μM CP47,497-C8 or JWH073

The chains behind the UniProt entries cited, without tags or fusion partners.
UniProt P20272, whole entry: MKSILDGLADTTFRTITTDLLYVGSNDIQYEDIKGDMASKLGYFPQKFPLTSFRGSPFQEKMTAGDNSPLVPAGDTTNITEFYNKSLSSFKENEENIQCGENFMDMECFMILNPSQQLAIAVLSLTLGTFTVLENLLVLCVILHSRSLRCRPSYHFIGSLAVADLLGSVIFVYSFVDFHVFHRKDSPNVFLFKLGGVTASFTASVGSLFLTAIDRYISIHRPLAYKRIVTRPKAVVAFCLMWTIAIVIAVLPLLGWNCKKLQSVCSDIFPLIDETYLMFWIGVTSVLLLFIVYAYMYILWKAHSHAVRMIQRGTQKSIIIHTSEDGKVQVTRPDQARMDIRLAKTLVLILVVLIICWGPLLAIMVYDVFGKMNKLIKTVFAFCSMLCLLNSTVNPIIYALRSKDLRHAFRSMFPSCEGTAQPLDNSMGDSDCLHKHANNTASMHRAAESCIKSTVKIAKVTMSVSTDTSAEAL
UniProt P47746, whole entry: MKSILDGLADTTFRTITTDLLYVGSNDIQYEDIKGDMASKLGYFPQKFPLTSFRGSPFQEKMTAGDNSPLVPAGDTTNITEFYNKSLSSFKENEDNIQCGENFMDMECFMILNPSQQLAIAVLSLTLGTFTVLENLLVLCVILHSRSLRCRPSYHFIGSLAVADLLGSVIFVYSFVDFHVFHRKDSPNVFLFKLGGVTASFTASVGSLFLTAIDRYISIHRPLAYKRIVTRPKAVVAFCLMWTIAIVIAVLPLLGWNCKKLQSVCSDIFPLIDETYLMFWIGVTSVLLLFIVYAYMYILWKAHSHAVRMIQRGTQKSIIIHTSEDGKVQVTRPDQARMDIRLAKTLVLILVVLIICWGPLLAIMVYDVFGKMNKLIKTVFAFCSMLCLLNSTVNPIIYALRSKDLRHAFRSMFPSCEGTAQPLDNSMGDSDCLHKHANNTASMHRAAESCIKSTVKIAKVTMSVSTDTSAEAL

SMILES: Cc1c(C(=O)NN2CCCCC2)nn(-c2ccc(Cl)cc2Cl)c1-c1ccc(Cl)cc1 [rimonabant, Rimonabant]
- CB1 surface levels with rimonabant alone (CB1 receptors [1]; 1 μM rimonabant alone, data not shown): 99.4 ± 2.7 % of basal surface levels
- effect of rimonabant on agonist-induced CB1 internalization (CB1 receptors [1]; 1 μM rimonabant with 1 μM of each drug): prevented internalization
- EPSC size with rimonabant on its own (CB1 receptors [2]): 96 ± 4.0 % of baseline
- effect of rimonabant on agonist-induced EPSC inhibition (CB1 receptors [3]): reversed

From paper PMC3094488 (European journal of pharmacology, 2011)
